Data from patent US7212853B1 (priority 1996, dated 2007).

Key:
[1] = Transdermal electrotransport delivery of fentanyl with pulsed current at 1, 10 and 625 Hz (Example 4, Table 1); conditions: for Rate of Fentanyl Delivery, After Bolus Treatment: after DC bolus 30 minutes at 0.1 mA/cm^2
[2] = Transdermal electrotransport delivery of fentanyl in volunteers: effect of initial high current density boluses (Example 1); conditions: for mean transdermal fentanyl flux: calculated from serum concentrations
[3] = Transdermal electrotransport delivery of fentanyl at constant DC current densities of 10, 20 and 40 μA/cm^2 (Example 2); conditions: for average transdermal fentanyl rate: constant DC, 24 h, 8 volunteers
[4] = 1 Hz, pulse width 310 msec, 31% duty cycle
[5] = 10 Hz, pulse width 31 msec, 31% duty cycle
[6] = 625 Hz, pulse width 0.5 msec, 31% duty cycle

SMILES: CCC(=O)N(c1ccccc1)C1CCN(CCc2ccccc2)CC1
- Rate of Fentanyl Delivery, Without Bolus Treatment [1, 4]: 48** μg/hr.
- Rate of Fentanyl Delivery, After Bolus Treatment [1, 4]: 48** μg/hr.
- Rate of Fentanyl Delivery, Without Bolus Treatment [1, 5]: 52** μg/hr.
- Rate of Fentanyl Delivery, After Bolus Treatment [1, 5]: 52** μg/hr.
- difference in fentanyl flux between 1 and 10 Hz ([1]; 200 μA pulses (100 μA/cm^2), 31% duty cycle): No statistically significant difference
- Rate of Fentanyl Delivery, Without Bolus Treatment [1, 6]: 7 µg/h
- Rate of Fentanyl Delivery, After Bolus Treatment [1, 6]: 34 µg/h
- minimum pulse width to cause transformation to the higher efficiency state ([1]; fentanyl, stated as believed): about 10 msec
- fentanyl flux (in words, FIG. 7) ([1]; pulsing frequencies 1 and 10 Hz, 200 μA pulses (100 μA/cm^2), 31% duty cycle): increased fentanyl flux
- fentanyl flux (in words, FIG. 7) ([1]; square-wave 625 Hz, 200 μA pulses (100 μA/cm^2), 31% duty cycle): minimal fentanyl flux
- enhancement of electrotransport delivery efficiency (factor) ([2]; initial high current density boluses vs baseline current only): two
- mean transdermal fentanyl flux ([2]; six volunteers, four 260 μA/cm^2, 2.5 minute boluses in first hour, then 20 μA/cm^2 through 24 hours): 113 µg/h
- mean transdermal fentanyl flux ([2]; twelve volunteers, only 20 μA/cm^2 baseline current over 24 hours): 57 µg/h
- average transdermal fentanyl rate ([3]; 10 μA/cm^2 (50 μA)): 19 µg/h
- average transdermal fentanyl rate ([3]; 20 μA/cm^2 (100 μA)): 73 µg/h
- average transdermal fentanyl rate ([3]; 40 μA/cm^2 (200 μA)): 173 µg/h
- enhancement of efficiency of fentanyl delivery ([3]; change in current density from 10 to 40 μA/cm^2): about 2.5 fold
- increase in drug rate ([3]; current increased four-fold from 50 μA to 200 μA): ten

Only a part of the results on these compounds is given; other tests are left out. Marks after values point to notes of the source that are not given here.
